# Test results published in PMC8703450, “New Heterocyclic Combretastatin A-4 Analogs: Synthesis and Biological Activity of Styryl-2(3H)-benzothiazolones” (Pharmaceuticals, 2021).
# System: colchicine binding site of β-tubulin
# Assay: Colchicine-binding site assay (EBI competition) in EA.hy926 cells
# Assay type: cell-based, human
# Settings: EA.hy926, 10 μM compound 2 h, then 100 µM EBI 2 h, Western blot
# Protocol: N,N′-ethylene-bis(iodoacetamide) (abcam, ab144980) was dissolved in DMSO to a final concentration of 50 mM. EA.hy926 cells were seeded at density of 1 × 10^5 cells/mL and incubated overnight. […] Cells were lysed with Laemmli buffer and subjected to Western blot analysis for β-tubulin [66, 67]. The detailed Western blot method is as shown above.
smiles,measurement,value
COc1cc2c(c(OC)c1OC)-c1ccc(OC)c(=O)cc1[C@@H](NC(C)=O)CC2 [colchicine],tubulin EBI-adduct formation,inhibited
